Experimental data as given in ChEMBL document CHEMBL1142715, “Discovery of new tetracyclic tetrahydrofuran derivatives as potential broad-spectrum psychotropic agents” (J Med Chem, 2005).

The chains behind the UniProt entries cited, without tags or fusion partners.
UniProt P18901, whole entry: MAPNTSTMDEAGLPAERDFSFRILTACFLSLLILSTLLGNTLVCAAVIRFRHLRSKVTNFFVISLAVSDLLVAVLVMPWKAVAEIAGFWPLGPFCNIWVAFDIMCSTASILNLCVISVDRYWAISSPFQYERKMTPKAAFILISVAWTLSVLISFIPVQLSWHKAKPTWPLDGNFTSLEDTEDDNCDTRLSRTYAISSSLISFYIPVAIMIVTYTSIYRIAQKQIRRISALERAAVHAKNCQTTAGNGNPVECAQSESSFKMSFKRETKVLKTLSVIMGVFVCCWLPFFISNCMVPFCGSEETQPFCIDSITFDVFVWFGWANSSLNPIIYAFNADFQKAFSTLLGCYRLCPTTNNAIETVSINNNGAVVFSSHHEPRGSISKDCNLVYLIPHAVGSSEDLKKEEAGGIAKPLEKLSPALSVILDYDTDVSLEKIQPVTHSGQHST

Molecular target: D(1A) dopamine receptor (Rattus norvegicus, UniProt P18901)

Work on `Cc1nc2n(c(=O)c1CCN1CCC(c3noc4cc(F)ccc34)CC1)CCCC2` [RISPERIDONE] yielded a Ki of 147 nM.
